# A549 viability – A549 cytotoxicity, counter-screen for Nrf2 inhibitors; A549 ARE-Fluc cells, CellTiter-Fluor viability, 18-24 h; Potency, µM (top dose mostly 46 µM), without a hit: top-dose activity change, negative = cytotoxicity, hits mostly inhibitors; actives 0.16% (n = 390,000); AID 504648; also: potency is read from the fitted curve at half-maximal effect; % is scaled to controls: 0 for no effect and ±100 for the full control effect
#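 A549 ARE_Fluc cells in 5% FBS OPTI-MEM were exposed to compounds in concentration-response for 18-24 h at 37 deg C. Viability was read by CellTiter-Fluor fluorescence (Ex 405/Em 525) after 30 min, before the luciferase read.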
# Nrf2 ARE act – Nrf2 pathway activation; AID 624171; AREc32 ARE-luciferase reporter (MCF7-derived line), luminescence, 24 h; actives 0.31% (n = 410,000); Potency, µM (top dose mostly 46.1 µM), without a hit: at the highest dose activation, most hits filed as activators; also: potency is read from the fitted curve at half-maximal effect; % of control where 0% means no effect; nearly all actives have a fitted effect of over 65% in size
#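 Steps: seed AREc32_Fluc cells (1000/well, 5% FBS OPTI-MEM); incubate overnight at 37 deg C; add 23 nL compound; incubate 24 hr; add Steady-Glo; hold 30 min RT; read luminescence.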
# GRP78 ERSR act – ER stress response induction in glioma; U87-MG GRP78 promoter luciferase reporter, 16 h; Potency, µM, for inactives: at the top dose activation, most hits filed as activators; actives 0.02% (n = 420,000); AID 602332; also: potency is read from the fitted curve at half-maximal effect; series mostly up to about 76 µM; % of control where 0% means no effect; nearly all actives have a fitted effect of over 35% in size
#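 Stably transfected U87-MG human glioma cells carrying a GRP78-based luminescent sensor were seeded at 1000 cells/well, pin-dosed with compounds and incubated 16 h. Luciferase reagent was then added, and end-point luminescence was read after 10 min at room temperature.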
# PTAP TSG101 blk – blocks PTAP/TSG101 interaction to inhibit HIV-1 budding; Potency, µM (highest dose often 115 µM), for inactives: at the top dose activity change, negative = inhibition, usual class: inhibitors; Fluorescence polarization, FITC-PTAP peptide / Tsg101 binding; AID 493005; 340,000 tested, under 10 active; active = well fitted inhibition curve with a large enough effect in the main read-out, with a control signal flat, not every such curve was filed as active; inconclusive = small, poorly fitted or top-dose-only effect, or effect the other way, or a change in a side signal; inactive = no such curve, though single readings can be large or run the other way; also: potency is read from the fitted curve at half-maximal effect; % of control where 0% means no effect
#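 Steps: Tsg101 binding domain dispensed (10 uM final), compounds pinned in DMSO, FITC-labeled PTAP-motif peptide added (50 nM final); after 20 min binding at room temperature, polarization measured.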
# Nrf2 block – blocks Nrf2 signaling | actives 2.1% (n = 360,000) | Potency, µM (doses to about 46 µM), without a hit: at the top dose activity change, negative = inhibition, actives largely listed as inhibitors | A549 ARE-Fluc reporter, luciferase luminescence, 18-24 h; also: potency is read from the fitted curve at half-maximal effect; % is scaled to controls: 0 for no effect and ±100 for the full control effect; nearly all actives have a fitted effect of over 60% in size
#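 A549 ARE_Fluc cells, 5000/well, 5% FBS OPTI-MEM; compounds in dose-response, 18-24 h at 37 °C/5% CO2; CellTiter-Fluor viability read (Ex 405/Em 525), then BugLite luciferase luminescence = Nrf2 activity.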
# miR-21 reporter – raises the signal of a miR-21 reporter; AID 2288; 340,000 tested, under 10 active; Potency, µM (doses to about 38.3 µM), inactives show at the top dose reporter change, positive = more light; HeLa miR-21 FLuc reporter, luciferase, 48 h; active = well fitted rising curve with a large enough effect; inconclusive = small, poorly fitted or top-dose-only effect; inactive = no such curve, though single readings can be large or run the other way;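 note: % of control where 0% means no effect; miR-21 action dims this reporter so a rising signal means less miR-21 action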
#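 HeLa cells endogenously expressing miR-21, stably carrying CMV-driven firefly luciferase with a downstream miR-21 binding site, 2000 cells/well. Titrations up to approximately 40 uM, 48 hours; luciferase luminescence read.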
# An asterisk follows results filed as active; ? = inconclusive; · = not tested or not shown. Sampled rows, rich in hits. Any-hit rate of the full collection: about 2.1%. Unless noted, calls follow the shape of the dose curve; as a rule, active = well fitted curve in the direction sought with a large enough effect; inconclusive = small, poorly fitted or top-dose-only effect, or another doubt; inactive = no such curve, though single readings can be large; an effect the other way counts as inactive or inconclusive.
Structure,A549 viability,Nrf2 ARE act,GRP78 ERSR act,PTAP TSG101 blk,Nrf2 block,miR-21 reporter
Cn1c(=O)c2[nH]c(Nc3ccccc3)nc2n(C)c1=O,5%,14%,-2%,-1%,-5%,15%
Cc1ccc(CNc2nc3c([nH]2)c(=O)n(C)c(=O)n3C)cc1,-24%,0%,1%,1%,9.2µM*,-1%
COc1ccc(S(=O)(=O)N(C)c2ccc(C(=O)N3CCN(c4ccccc4)CC3)cc2)cc1OC,2%,6%,-5%,-4%,?,17%
CCOC(=O)N1CCN(C(=O)c2ccc(N(C)S(=O)(=O)c3ccc(C)cc3)cc2)CC1,-11%,0%,4%,-2%,23µM*,12%
COc1ccc(N2CCN(C(=O)c3ccc(N(C)S(=O)(=O)c4ccc(OC)cc4)cc3)CC2)cc1,10%,3%,3%,0%,26µM*,11%
Cc1ccc(S(=O)(=O)N(C)c2ccc(C(=O)N3CCCCC3)cc2)cc1,-13%,0%,-1%,-2%,?,13%
COc1ccc(N2CCN(C(=O)c3ccc(N(C)S(=O)(=O)c4ccc(C)cc4)cc3)CC2)cc1,-10%,1%,2%,-3%,18µM*,12%
COc1ccc(S(=O)(=O)N(C)c2ccc(C(=O)N3CCN(C)CC3)cc2)cc1,1%,0%,-4%,1%,-10%,-2%
Cc1cc(C)n2nc(C(=O)NCC3Cc4cccc(-c5ccc(S(C)(=O)=O)cc5)c4O3)cc2n1 (configuration not stated),·,·,3%,·,·,·
CCn1c(=NC(=O)CS(=O)(=O)c2ccc(F)cc2)sc2cccc(OC)c21,-1%,0%,1%,0%,21µM*,·
Cc1ccc(Oc2coc3cc(O)ccc3c2=O)cc1,1%,-1%,6%,-1%,9.2µM*,-46%
COCCn1c(-c2ccc(OC(F)(F)C(F)C(F)(F)F)cc2)nc2c1c(=O)[nH]c(=O)n2CC(C)C (configuration not stated),-8%,11%,-7%,-6%,18µM*,13%
Cc1ccc(Nc2cc(C)nn2-c2nc(C)cc(=O)[nH]2)cc1,13µM*,?,?,-7%,1.8µM*,?
Cc1ccc(CN2CCOc3ccc(C(C)(O)COc4ccccc4)cc3C2)o1 (configuration not stated),·,·,-3%,·,·,·
Cc1cc(C)n2nc(SCC(=O)c3cc(C)n(CC4CCCO4)c3C)nc2n1 (configuration not stated),-5%,2%,-5%,2%,10µM*,-1%

# Single records, from the list above. Order of values: A549 viability, Nrf2 ARE act, GRP78 ERSR act, PTAP TSG101 blk, Nrf2 block, miR-21 reporter
# Cc1ccc(Nc2cc(C)nn2-c2nc(C)cc(=O)[nH]2)cc1 in the list: 13µM*, ?, ?, -7%, 1.8µM*, ?
# COc1ccc(N2CCN(C(=O)c3ccc(N(C)S(=O)(=O)c4ccc(OC)cc4)cc3)CC2)cc1 in the list: 10%, 3%, 3%, 0%, 26µM*, 11%
# CCOC(=O)N1CCN(C(=O)c2ccc(N(C)S(=O)(=O)c3ccc(C)cc3)cc2)CC1 in the list: -11%, 0%, 4%, -2%, 23µM*, 12%

# The listing continues.
Structure,A549 viability,Nrf2 ARE act,GRP78 ERSR act,PTAP TSG101 blk,Nrf2 block,miR-21 reporter
Cc1cc(C(=O)Cn2nnc(-c3ccc(Cl)cc3)n2)c(C)n1CC1CCCO1 (configuration not stated),-9%,0%,-2%,0%,13µM*,6%
Cc1csc(CN(C)C(=O)c2sc3ncnc(NCC4CCCO4)c3c2C)n1 (configuration not stated),·,·,-6%,·,·,·
COc1cccc(C2c3c(ncn(-c4ccccc4C)c3=N)Oc3ccc4ccccc4c32)c1 (configuration not stated),-10%,·,·,·,-6%,·
O=C(COC(=O)CCN1C(=O)/C(=C\C=C\c2ccccc2)SC1=S)Nc1cc(F)ccc1F,?,-1%,-9%,-1%,8.2µM*,26%
CCCc1cc(=O)oc2c3c(cc(OCC(=O)NCc4ccncc4)c12)OC(C)(C)CC3,?,1%,3%,-12%,12µM*,0%
CCCc1cc(=O)oc2c3c(cc(OCC(=O)NCc4ccccn4)c12)OC(C)(C)CC3,-2%,6%,3%,0%,?,-7%
O=C(NCC1OCCc2ccccc21)c1ccc(NC(=O)c2ccccc2Cl)cc1 (configuration not stated),2%,0%,-5%,-3%,21µM*,22%
